This note sets out measurements from patent US20110207784A1, “OXADIAZOLE-2-OXIDES AS ANTISCHISTOSOMAL AGENTS” (THE UNITED STATES OF AMERICA, AS REPRESENTED BY THE …, priority 2008, published 2011).

The experiment deals with freshly perfused S. mansoni worms. As to the kind of experiment: ex vivo parasite killing assay. The format is cell-based.

For `N#Cc1c(-c2csc(-c3no[n+]([O-])c3C#N)c2)no[n+]1[O-]` [Compound 54, 4,4′-(thiophen-2,4-diyl)bis(3-cyano-1,2,5-oxadiazole 2-oxide)], the “worms judged to be dead” value amounted to 100%.
